Test results from PubChem BioAssay AID1920062 (Sanford-Burnham Center for Chemical Genomics, 2024).
Only a part is listed here, and it is no random draw. Some results for these compounds are left out of this collection, so the calls shown say nothing about other tests. Calls of active or inactive are those of the source.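 How the source made its calls: active means activation at 10 µM reaching about 35% in either raw or pattern-adjusted values (limit read from the data); inactive means the rest.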

The chains behind the UniProt entries cited, without tags or fusion partners.
UniProt P20594, whole entry: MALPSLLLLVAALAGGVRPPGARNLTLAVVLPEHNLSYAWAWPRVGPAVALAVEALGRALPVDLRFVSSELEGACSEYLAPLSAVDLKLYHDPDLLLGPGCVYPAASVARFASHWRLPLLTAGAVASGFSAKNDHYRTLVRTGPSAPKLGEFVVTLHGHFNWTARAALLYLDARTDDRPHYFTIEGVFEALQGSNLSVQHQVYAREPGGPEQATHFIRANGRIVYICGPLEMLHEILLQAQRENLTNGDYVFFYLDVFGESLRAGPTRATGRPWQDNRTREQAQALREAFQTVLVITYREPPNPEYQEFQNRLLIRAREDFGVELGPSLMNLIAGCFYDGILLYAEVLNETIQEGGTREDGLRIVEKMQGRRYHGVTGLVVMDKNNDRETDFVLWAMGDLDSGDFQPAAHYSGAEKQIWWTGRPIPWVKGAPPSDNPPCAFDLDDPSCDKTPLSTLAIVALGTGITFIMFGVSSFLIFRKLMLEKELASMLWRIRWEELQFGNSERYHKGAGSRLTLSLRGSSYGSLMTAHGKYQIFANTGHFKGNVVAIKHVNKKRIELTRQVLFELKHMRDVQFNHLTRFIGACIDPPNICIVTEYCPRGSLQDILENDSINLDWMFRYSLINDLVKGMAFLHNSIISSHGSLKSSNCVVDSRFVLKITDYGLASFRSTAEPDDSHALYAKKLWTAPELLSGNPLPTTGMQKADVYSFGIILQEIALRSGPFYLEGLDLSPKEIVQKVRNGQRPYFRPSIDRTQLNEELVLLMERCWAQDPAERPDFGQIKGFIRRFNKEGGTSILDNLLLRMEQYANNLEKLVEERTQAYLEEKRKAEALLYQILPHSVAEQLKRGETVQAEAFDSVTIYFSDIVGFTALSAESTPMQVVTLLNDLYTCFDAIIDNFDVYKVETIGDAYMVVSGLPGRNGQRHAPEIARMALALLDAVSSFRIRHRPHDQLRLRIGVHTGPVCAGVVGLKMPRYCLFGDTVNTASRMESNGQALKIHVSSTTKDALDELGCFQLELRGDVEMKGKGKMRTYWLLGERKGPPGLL

Target: Atrial natriuretic peptide receptor 2 (Homo sapiens) (UniProt P20594)
Assay: human GC-B receptor activators, primary screen, HEK293 GC-B cells, cGMP TR-FRET, EC30 CNP (AID 1920062)
Conditions: at 10 µM, stronger effect = higher value, 0% at EC30 CNP, 100% saturating CNP

Compound	activation
Cc1ccc(C(=O)NCC2(N3CCCCC3)CCCCC2)cc1	inactive: -1.77%
COc1cc(SC)ccc1C(=O)NCC1(N(C)C)CCCCC1	inactive: 1.89%
CCN(CC)CC(C)C(C)OC(=O)C(O)(c1ccccc1)c1ccccc1 (stereo unspecified)	inactive: -1.55%
CC(C)N1C(=O)CC2(CCN(CCOC(=O)C(O)(c3ccccc3)c3ccccc3)CC2)C1=O	inactive: 4.87%
CN1[C@@H]2CC[C@H]1CC(OC(=O)C(O)(c1ccccc1)c1ccccc1)C2 (stereo partly specified)	inactive: 0.78%
O=C(NCC1(N2CCCCC2)CCCCC1)c1cc([N+](=O)[O-])ccc1Cl	inactive: 5.9%
COc1ccc(C(=O)NCC2(N(C)C)CCCCC2)cc1	inactive: 1.17%
O=C(NCC1(N2CCCCC2)CCCCC1)c1cccc(Br)c1	inactive: 1.56%
CCN1CCCC(OC(=O)C2(O)c3ccccc3C=Cc3ccccc32)C1 (stereo unspecified)	inactive: -18.1%
Cc1cc(C(=O)NCC2(N3CCCCC3)CCCCC2)ccc1[N+](=O)[O-]	inactive: 1.35%
O=C(NCC1(N2CCCCC2)CCCCC1)c1cc(F)c(F)cc1Cl	inactive: -2.47%
C=CCN1CCN(CCOC(=O)C(O)(c2ccccc2)c2ccccc2)CC1	inactive: -0.29%
CN(C)c1ccc(C(=O)NCC2(N(C)C)CCCCC2)cc1	inactive: -2.15%
CN(C)C1CCCC1OC(=O)C(O)(c1ccccc1)c1ccccc1 (stereo unspecified)	inactive: -4.56%
Cc1ccccc1C(=O)NCC1(N2CCCCC2)CCCCC1	inactive: -0.28%
O=C(NCC1(N2CCCCC2)CCCCC1)c1cccc(Cl)c1	inactive: -0.18%
COc1ccc(Cl)cc1C(=O)NCC1(N(C)C)CCCCC1	inactive: -0.56%
COc1cccc(C(=O)NCC2(N3CCCCC3)CCCCC2)c1	inactive: 2.04%
COc1cc(C(=O)NCC2(N(C)C)CCCCC2)c([N+](=O)[O-])cc1OC	inactive: 2.59%
CN(C)C1(CNC(=O)c2ccc(Br)cc2)CCCCC1	inactive: -2.51%
O=C(OCCN1CCCC1)C(O)(c1ccccc1)c1ccccc1	inactive: 1.78%
CC(C)Oc1ccc(C(=O)NCC2(N(C)C)CCCCC2)cc1	inactive: 1.6%
CN(C)c1cccc(C(=O)NCC2(N(C)C)CCCCC2)c1	inactive: 4.5%
C=C(C)C#CC(O)(C(=O)OC1CCN(C)CC1)c1ccccc1 (stereo unspecified)	inactive: -1.08%
COc1ccc(Br)c(C(=O)NCC2(N3CCCCC3)CCCCC2)c1	inactive: -5.07%
O=C(OC1CN2CCC1CC2)C(CO)(c1ccccc1)c1ccccc1 (stereo unspecified)	inactive: -3.21%
